Paper PMC7823652 (Viruses, 2020)
Like-named read-outs stand apart in the source and are kept apart here.

The chains behind the UniProt entries cited, without tags or fusion partners.
UniProt O15527, whole entry: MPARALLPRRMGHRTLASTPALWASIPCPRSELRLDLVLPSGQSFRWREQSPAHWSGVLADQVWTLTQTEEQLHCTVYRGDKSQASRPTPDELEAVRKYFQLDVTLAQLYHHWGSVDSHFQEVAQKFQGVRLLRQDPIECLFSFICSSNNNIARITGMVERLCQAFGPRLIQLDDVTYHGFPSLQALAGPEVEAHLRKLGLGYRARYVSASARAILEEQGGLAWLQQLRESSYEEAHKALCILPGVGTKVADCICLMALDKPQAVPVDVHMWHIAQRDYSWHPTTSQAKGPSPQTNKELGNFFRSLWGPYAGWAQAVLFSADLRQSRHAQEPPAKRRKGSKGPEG

Biological target: hOGG1 (Homo sapiens, UniProt O15527)
Assay: hOGG1 IC50 (listed in supplementary data, method not described)
Assay type: biochemical

`O=C(Nc1ccc(I)cc1)N1CCC(n2c(=O)[nH]c3cc(Cl)ccc32)CC1` [TH003289] was tested, and the IC50 was 1620 nM.

With `O=C(Nc1ccc(I)cc1)N1CCC(n2c(=O)[nH]c3cc(Cl)ccc32)CC1` [TH3289] the IC50 was 1620 nM and the IC50 (screening data table) was 1620 nM.
